{"sequences": {"note": "The chains behind the UniProt entries cited, without tags or fusion partners.", "UniProt P78527, whole entry": "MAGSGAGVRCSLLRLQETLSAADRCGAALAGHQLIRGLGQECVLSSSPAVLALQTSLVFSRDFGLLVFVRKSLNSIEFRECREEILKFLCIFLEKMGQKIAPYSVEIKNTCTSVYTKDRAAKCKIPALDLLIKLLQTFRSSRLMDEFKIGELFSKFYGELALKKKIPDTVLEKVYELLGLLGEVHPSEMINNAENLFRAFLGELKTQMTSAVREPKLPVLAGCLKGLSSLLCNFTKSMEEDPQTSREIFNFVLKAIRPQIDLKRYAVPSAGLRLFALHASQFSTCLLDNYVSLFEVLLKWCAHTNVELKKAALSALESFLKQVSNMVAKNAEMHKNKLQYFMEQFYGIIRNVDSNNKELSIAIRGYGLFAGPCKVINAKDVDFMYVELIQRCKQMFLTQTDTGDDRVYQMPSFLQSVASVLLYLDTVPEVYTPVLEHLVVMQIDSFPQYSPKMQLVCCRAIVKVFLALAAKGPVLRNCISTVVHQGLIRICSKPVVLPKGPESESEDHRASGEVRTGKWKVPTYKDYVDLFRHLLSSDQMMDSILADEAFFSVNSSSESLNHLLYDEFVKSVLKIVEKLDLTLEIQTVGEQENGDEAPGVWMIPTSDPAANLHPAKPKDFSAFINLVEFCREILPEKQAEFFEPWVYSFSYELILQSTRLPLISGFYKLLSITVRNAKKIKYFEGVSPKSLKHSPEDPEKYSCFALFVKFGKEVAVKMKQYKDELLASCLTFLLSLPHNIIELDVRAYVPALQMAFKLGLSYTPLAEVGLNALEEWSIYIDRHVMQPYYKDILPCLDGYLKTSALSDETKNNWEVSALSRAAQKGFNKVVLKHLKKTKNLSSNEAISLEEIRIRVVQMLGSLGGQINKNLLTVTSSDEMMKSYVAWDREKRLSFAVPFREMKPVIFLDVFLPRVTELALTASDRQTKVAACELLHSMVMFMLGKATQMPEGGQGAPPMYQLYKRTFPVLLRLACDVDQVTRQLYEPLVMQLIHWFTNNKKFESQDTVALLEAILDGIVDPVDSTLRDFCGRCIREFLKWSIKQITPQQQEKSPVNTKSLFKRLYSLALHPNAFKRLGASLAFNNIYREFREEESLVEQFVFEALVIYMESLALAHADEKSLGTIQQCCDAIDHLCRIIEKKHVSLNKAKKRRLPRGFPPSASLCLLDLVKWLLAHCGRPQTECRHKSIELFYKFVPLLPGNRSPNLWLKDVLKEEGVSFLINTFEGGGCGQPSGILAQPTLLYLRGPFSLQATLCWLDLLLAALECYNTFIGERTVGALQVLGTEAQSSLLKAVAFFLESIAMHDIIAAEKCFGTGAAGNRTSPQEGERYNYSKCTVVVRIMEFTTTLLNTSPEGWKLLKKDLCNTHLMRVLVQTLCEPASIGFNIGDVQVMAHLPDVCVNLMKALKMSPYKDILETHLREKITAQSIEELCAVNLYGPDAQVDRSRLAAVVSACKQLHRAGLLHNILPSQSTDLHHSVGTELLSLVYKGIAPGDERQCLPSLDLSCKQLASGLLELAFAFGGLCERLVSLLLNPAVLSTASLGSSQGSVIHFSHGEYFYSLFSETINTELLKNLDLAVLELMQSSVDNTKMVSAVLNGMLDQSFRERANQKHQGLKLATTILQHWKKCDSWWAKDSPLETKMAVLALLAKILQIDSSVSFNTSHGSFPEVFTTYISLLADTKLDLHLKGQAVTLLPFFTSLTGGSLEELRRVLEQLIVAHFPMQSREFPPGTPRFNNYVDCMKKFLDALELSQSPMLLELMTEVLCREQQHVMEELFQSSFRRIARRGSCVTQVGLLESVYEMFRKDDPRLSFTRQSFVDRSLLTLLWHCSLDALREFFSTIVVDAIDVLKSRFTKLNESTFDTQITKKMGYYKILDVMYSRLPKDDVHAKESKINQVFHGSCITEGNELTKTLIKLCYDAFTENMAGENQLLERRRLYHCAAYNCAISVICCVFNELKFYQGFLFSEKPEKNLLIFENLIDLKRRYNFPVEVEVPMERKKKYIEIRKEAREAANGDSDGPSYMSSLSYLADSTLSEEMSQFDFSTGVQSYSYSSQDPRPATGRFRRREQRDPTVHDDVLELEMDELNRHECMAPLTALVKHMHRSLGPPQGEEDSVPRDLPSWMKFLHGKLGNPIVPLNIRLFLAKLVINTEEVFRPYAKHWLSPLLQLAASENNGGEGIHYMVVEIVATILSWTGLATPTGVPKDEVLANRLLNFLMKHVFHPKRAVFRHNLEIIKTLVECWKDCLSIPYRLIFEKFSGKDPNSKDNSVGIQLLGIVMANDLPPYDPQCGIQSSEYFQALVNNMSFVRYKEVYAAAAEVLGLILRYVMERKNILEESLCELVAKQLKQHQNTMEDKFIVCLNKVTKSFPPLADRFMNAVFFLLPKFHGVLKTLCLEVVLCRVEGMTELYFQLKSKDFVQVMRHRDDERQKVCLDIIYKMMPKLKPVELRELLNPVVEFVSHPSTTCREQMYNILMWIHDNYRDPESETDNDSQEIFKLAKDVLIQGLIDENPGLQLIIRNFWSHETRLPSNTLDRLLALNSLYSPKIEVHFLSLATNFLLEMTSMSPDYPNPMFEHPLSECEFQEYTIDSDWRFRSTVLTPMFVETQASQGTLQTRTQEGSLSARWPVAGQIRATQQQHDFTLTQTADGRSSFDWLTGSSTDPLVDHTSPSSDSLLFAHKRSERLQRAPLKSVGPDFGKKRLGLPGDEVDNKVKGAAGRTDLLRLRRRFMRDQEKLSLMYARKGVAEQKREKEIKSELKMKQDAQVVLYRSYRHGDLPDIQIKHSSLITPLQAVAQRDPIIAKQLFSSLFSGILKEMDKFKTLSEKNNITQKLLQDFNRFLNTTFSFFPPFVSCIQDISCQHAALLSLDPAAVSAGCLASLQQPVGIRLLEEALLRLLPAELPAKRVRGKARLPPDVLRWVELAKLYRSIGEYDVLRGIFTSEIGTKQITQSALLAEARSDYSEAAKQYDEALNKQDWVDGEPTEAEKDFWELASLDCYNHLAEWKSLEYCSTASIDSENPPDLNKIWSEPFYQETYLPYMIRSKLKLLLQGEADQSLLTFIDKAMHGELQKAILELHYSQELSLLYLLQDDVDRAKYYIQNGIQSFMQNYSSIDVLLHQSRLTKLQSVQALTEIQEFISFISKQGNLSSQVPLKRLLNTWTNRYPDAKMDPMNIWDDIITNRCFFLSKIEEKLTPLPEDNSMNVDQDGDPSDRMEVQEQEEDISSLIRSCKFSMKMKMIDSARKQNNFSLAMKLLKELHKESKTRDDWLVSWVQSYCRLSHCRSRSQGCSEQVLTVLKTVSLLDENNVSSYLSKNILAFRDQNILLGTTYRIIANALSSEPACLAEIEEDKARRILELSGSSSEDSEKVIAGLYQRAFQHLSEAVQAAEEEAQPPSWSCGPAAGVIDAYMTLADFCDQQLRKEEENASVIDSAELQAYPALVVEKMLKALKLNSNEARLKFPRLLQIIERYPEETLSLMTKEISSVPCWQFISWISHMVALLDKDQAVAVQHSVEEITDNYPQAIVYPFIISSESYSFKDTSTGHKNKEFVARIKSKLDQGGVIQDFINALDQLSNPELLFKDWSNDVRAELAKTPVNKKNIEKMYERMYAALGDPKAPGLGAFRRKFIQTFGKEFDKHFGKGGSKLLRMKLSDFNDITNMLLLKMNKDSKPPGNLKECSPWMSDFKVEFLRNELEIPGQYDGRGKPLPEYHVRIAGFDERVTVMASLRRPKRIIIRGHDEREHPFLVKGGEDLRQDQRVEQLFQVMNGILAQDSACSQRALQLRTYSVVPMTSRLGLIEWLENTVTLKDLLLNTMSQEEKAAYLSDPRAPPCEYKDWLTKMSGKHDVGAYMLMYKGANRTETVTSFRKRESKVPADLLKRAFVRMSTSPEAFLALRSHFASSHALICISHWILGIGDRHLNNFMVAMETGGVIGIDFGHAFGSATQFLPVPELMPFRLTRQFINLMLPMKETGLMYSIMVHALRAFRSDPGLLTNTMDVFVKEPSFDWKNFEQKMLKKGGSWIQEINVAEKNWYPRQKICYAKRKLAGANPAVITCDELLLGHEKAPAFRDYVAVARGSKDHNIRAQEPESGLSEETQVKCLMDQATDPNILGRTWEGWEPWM"}, "source": "patent US6803203B1", "about": "“DNA-PK assay” (Brookhaven Science Associates, priority 1993, dated 2004)", "key": {"[1]": {"biological_target": "T1, DNA-PK (Homo sapiens, UniProt P78527)", "T1 construct": "DNA-PK was purified from HeLa cells; endogenous in cells; host or cells: HeLa S3 cells; the endogenous enzyme was purified in house by chromatography", "assay": "Poorer substrate peptides added to (SEQ ID NO: 8) phosphorylation assays", "assay_type": "biochemical", "conditions": "peptide up to 250 μM; (SEQ ID NO: 8) at 100 μM"}, "[2]": {"biological_target": "T1, DNA-PK", "assay": "Phosphorylation of synthetic peptides by purified DNA-PK (phosphocellulose paper binding method)", "assay_type": "biochemical"}}, "note": "“Also recorded” adds a separate entry of the source."}
{"substance": "Ala Leu Pro Asn Asn Thr Ser Ser Ser Pro Gln Pro Lys Lys Lys Pro Leu Asp Gly Glu Tyr (ALPNNTSSSPQPKKKPLDGEY; Human p53 residues 306-327; listed as Homo sapiens) [SEQ ID NO: 29]", "values": [{"measurement": "inhibition of phosphorylation of (SEQ ID NO: 8)", "setting": "[1]", "result": "None of these peptides significantly inhibited the phosphorylation"}, {"measurement": "substrate activity for DNA-PK (in words)", "setting": "[2]", "result": "phosphorylated at a negligible rate; also recorded: not substrates for DNA-PK"}, {"measurement": "PO4 incorp.", "setting": "[2]; each peptide at 200 μM, calf thymus DNA 10 μg/ml, 30° C.", "result": "0.6 pmol/min/μg of DNA-PK"}]}
